Results taken from patent publication US7736677B2 (Metaproteomics, LLC, priority 2001, dated 2010).

Test system: adiponectin
Assay: Adiponectin secretion from TNFα-treated 3T3-L1 adipocytes

## COc1ccc2c(c1)c(CC(=O)O)c(C)n2C(=O)c1ccc(Cl)cc1 [Indomethacin, indomethacin]
0.5 ng TNFα/ml
  adiponectin secretion: dose-dependant decrease
10 ng/ml TNFα
  maximum increase of adiponectin secretion from the TNFα solvent control: 67%
